According to patent US20250049817A1, “JAK INHIBITOR WITH A VITAMIN D ANALOG FOR TREATMENT OF SKIN DISEASES” (INCYTE CORPORATION, priority 2020, published 2025):

Target: human JAK1 (a.a. 837-1142) (Homo sapiens, UniProt P23458)
Test: In vitro JAK kinase assay (HTRF), JAK1
Format: biochemical
Conditions: 1 mM ATP

An IC50 of less than 10 nM was found for CN(C)Cc1cc(F)cc(OC2CCN(CC(CC#N)n3cc(-c4ncnc5[nH]ccc45)cn3)CC2)c1 (single isomer, unassigned) [Compound 14, 4-(4-{3-[(dimethylamino)methyl]-5-fluorophenoxy}piperidin-1-yl)-3-[4-(7H-pyrrolo[2,3-d]pyrimidin-4-yl)-1H-pyrazol-1-yl]butanenitrile] in this work.
